Target: biotinylated PD-L1 (biotin (bought biotinylated; site not stated))
Assay: SPR

- koff: 0.00283 s⁻¹
- kon: 478000 M⁻¹ s⁻¹
B1: masked antagonist MA19 after TEV protease treatment (other)
chain: DSPDRPWNPPTFSPALLVVTEGDNATFTCSFSNTSESFHVVWHRESPSGQTDTLAAFPEDRSQPGQDARFRVTQLPNGRDFHMSVVRARRNDSGTYVCGVISLAPKIQIKESLRAELRVTER

— article PMC10710080 (Proceedings of the National Academy of Sciences of the …, 2023)
